Experiment [1] deals with Ba/F3 EGFR-V769_D770insASV (Homo sapiens, UniProt P00533, DUP767-769, cells depend on it). Briefly: Cell proliferation assay (CellTiter-Glo), Ba/F3 EGFR-V769_D770insASV cells. To be noted: read-out: Ba/F3 EGFR-V769_D770insASV (nM), IC50 of cell proliferation, 72 hrs, CTG assay, * = average of multiple measurements. As for the experimental part:
(§1) I. Cell proliferation assay (i) Reagents and consumables • Fetal bovine serum (FBS) (GBICO, Cat #10099-141); • CellTiter-Glo® Luminescent Cell Viability Assay Kit (Promega, Cat #G7572); • Black transparent flat-bottomed 96-well plate (Corning®, Cat #3603).
(§2) • SpectraMax Multi-Label Microplate Detector MD, 2104-0010A; • CO2 incubator, Thermo Scientific 3100 Series; • Biosafety cabinet, Thermo Scientific, 1300 Series type A2; • Inverted microscope, Olympus, CKX41SF; • Siemens refrigerator KK25E76TI. (iii) Cell lines and culture conditions
(§3) (iv) Experimental procedures 1. Cell culture and seeding: • (1) Cells in the logarithmic growth phase were harvested, and counted using a platelet counter. Cell viability was detected by the trypan blue exclusion assay to ensure that the cell viability was above 90%. • (2) The cell concentration was adjusted to achieve the final density; and 90 μL of the cell suspension was added to the 96-well plate. • (3) The cells were incubated in the 96-well plate overnight at 37° C. in the presence of 5% CO2 with 95% humidity. 2. […] Reading of luminescent signals • (1) The CTG reagent was thawed, and the cell plate was equilibrated to room temperature for 30 min. • (2) An equal volume of CTG solution was added to each well. • (3) The cells were shaken for 5 min on an orbital shaker for lysis. […]
In general terms: In ATP-based viability assays light output follows the ATP content of the culture.

Amino acid sequences for entries named in this document (tags omitted). Chains listed by the source or under a name are the forms on record and can include a tag or linker.
UniProt P00533, with tags, fused parts or gaps DUP767-769: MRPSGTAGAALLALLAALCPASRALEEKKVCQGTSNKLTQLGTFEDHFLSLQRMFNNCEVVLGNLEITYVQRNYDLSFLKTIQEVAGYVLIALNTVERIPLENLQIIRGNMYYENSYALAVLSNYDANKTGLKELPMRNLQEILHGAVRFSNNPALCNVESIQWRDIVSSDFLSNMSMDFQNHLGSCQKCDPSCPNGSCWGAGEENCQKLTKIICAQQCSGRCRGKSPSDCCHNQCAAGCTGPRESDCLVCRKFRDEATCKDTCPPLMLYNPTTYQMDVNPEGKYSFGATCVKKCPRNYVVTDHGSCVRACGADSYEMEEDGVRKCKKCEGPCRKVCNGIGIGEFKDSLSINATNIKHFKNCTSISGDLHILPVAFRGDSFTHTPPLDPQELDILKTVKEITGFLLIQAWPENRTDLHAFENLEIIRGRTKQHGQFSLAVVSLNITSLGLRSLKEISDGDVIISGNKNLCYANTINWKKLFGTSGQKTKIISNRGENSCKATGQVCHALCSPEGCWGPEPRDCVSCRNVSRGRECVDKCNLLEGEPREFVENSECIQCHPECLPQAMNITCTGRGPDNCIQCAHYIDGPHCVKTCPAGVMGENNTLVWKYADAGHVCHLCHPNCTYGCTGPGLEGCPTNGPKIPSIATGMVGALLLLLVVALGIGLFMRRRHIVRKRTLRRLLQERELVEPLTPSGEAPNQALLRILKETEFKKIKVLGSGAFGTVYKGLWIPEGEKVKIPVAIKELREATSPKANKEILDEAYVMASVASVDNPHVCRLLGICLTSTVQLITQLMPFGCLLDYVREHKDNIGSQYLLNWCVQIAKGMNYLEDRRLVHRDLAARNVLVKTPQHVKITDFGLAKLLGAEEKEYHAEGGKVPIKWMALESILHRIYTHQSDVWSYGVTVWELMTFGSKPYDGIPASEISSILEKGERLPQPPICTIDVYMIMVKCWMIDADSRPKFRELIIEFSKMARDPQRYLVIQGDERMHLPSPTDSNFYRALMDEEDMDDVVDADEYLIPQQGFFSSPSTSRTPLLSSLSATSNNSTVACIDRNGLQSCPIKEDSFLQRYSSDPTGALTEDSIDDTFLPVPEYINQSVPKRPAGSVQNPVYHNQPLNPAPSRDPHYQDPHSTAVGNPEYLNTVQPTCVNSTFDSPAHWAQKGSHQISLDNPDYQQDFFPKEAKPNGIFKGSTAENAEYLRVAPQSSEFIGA
UniProt P00533, with tags, fused parts or gaps DUP768-770: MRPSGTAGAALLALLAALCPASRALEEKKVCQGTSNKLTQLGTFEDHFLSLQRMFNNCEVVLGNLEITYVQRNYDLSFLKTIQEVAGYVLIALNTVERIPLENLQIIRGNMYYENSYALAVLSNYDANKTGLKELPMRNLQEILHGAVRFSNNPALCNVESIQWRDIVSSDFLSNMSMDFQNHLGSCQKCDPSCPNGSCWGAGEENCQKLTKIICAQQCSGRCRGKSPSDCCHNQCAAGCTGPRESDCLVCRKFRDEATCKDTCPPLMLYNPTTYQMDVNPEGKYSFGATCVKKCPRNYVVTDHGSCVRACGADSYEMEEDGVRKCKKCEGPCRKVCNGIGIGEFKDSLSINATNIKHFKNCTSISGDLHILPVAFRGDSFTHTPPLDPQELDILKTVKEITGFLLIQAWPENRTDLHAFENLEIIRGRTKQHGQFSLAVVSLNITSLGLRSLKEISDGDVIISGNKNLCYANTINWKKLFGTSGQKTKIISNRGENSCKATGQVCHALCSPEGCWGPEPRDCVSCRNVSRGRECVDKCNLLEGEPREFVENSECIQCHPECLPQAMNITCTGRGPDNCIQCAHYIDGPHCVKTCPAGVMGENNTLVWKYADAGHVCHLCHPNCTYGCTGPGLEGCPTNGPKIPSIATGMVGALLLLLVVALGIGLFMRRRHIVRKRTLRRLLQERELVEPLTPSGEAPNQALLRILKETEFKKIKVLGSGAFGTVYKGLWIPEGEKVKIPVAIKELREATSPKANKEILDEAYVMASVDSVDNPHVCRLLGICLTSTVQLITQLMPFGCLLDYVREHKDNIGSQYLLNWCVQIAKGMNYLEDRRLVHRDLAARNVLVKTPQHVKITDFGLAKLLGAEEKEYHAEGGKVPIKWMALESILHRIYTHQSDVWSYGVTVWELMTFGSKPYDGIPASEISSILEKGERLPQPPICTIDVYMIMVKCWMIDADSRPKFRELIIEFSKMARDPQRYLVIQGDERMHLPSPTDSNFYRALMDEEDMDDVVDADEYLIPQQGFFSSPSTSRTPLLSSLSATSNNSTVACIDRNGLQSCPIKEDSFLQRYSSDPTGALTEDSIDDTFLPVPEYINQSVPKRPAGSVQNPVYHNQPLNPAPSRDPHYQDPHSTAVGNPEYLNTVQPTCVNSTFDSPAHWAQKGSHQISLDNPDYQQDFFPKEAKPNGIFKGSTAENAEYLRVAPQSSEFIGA

For experiment [2], the target named is Ba/F3 EGFR-D770-N771ins_SVD (Homo sapiens, UniProt P00533, DUP768-770, cells depend on it). Put plainly: Cell proliferation assay (CellTiter-Glo), Ba/F3 EGFR-D770-N771ins_SVD cells. To be noted: read-out: Ba/F3 EGFR-D770-N771ins_SVD (nM), IC50 of cell proliferation, 72 hrs, CTG assay, * = average of multiple measurements. As for the experimental part: as §1, §2, §3

Experiment [3] deals with A431 (EGFR-WT). Put plainly: Cell proliferation assay (CellTiter-Glo), A431 cells. The note with it: read-out: A431 (EGFR-WT) (nM), IC50 of cell proliferation, 72 hrs, CTG assay, * = average of multiple measurements. The method, then: as §1, §2, §3

Consider `C=CC(=O)Nc1cc(Nc2ncnc(N3CC(C)(C)c4ncccc43)n2)c(OC)cc1N(C)CCN(C)C`, for which the results for the GI50 in experiment [1] and in experiment [2] were 58.6 nM and 66.8 nM, respectively. In addition, the IC50 in experiment [3] is 280 nM.

Source of the values: patent US20240109885A1, “2,3-DIHYDRO-1H-PYRROLO[3,2-B]PYRIDINE DERIVATIVE, PREPARATION METHOD THEREFOR, AND APPLICATION THEREOF” (Abbisko Therapeutics Co., Ltd, priority 2020, published 2024).
